## Antibody variant affinities, Ab-14 heavy chain, assay 1

Target: peptide PDVDLGDISGINAS, taken from heptad repeat 2 (HR2) of SARS-CoV-2 spike.

Each scFv is VH, the linker GGGGSGGGGSGGGGS, VL, as in the parent Ab-14, and differs from it in the CDRs of the heavy chain only.
VH: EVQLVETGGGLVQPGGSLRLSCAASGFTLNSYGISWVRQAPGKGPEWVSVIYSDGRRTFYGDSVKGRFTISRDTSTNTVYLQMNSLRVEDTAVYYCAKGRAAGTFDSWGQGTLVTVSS
VL: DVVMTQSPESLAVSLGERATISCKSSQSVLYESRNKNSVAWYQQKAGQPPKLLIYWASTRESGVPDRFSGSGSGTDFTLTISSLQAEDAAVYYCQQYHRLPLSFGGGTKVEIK

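Phage display of a naive human antibody library on the peptide gave the parent. AAYL49 was designed without a model: most single CDR substitutions and a random sample of double and triple ones. AlphaSeq pools MATa yeast showing the antibodies with MATalpha yeast showing the peptide. After mating in shaken culture at 30 °C for 16 h, diploids were selected and their barcode pairs sequenced. Scores were corrected for input abundance and mapped to Kd with protein pairs of known affinity run in the same pool. Mating was done three times.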

The parent's heavy chain CDRs are GFTLNSYGIS, VIYSDGRRTFYGDSVK, GRAAGTFDS; each variant's own CDRs replace them letter for letter.
Values are log10 of the apparent Kd in nM; lower means stronger binding.
"nd" means that the variant was in the library but no mating with the target was seen in that replicate; the authors take this as a sign of poor binding, and no number exists.
Empty control strains, which show no peptide, gave a signal in 15% of pairings with library AAYL49; the median was 4.06 and 95% of these signals were weaker than 2.83. No background was subtracted. Also given: how often the same scFv was detected with the empty control strains, with their mean in brackets.

| CDR-H1 | CDR-H2 | CDR-H3 | log10 Kd, replicates | signal with controls |
|---|---|---|---|---|
| GFTLNSYGES | VIYSDGRGTFYGDSVK | GRAAGTVDS | nd nd nd | 0/9 |
| GDTLNSYGIS | EIYSDGRRTGYGDSVK | GRAAGTFDS | nd 4.22 3.34 | 1/9 (4.40) |
| GFTLNSYGIS | VIYSMGRWTFYKDSVK | GRAAGTFDS | 5.77 3.39 5.67 | 0/9 |
| GFTLNSYRIS | VIYSDGRRIFYGDSVK | GRAAGTMDS | 4.23 3.78 5.24 | 5/9 (4.33) |
| GDTLNSYGIS | VIYSDGRRTFYGDFVK | GDAAGTFDS | 2.23 2.68 nd | 0/9 |
| GFALNSYGIS | VIYSDGRRTFYTDSVK | GRAAGTFDE | 3.93 nd nd | 1/9 (4.04) |
| GFTLNSYTIS | VIYWDGRRTFYGDSWK | GRAAGTFDS | nd nd nd | 0/9 |
| GFTLNSYGHS | VIYSDGRTTFYGDSVK | GRAAGTFDS | 4.05 nd 4.50 | 3/9 (4.23) |
| TFTLNSYGIS | VIYSDGRRTFLGDSVK | GRANGTFDS | nd nd nd | 0/9 |
| GFTLNSFGIS | VPYSDGRRTFYGDSVK | GRAAGTFDW | nd nd nd | 0/9 |
| GFNLNSYGIS | VIYSDGRRTFYGDSVK | RRAAGTQDS | nd 3.59 nd | 1/9 (3.96) |
| GFTLNSYGSS | VIYSDGIRTFYGDSVK | GRAAGTFMS | nd nd nd | 1/9 (3.27) |
| GFTLNSYGRS | VIYSDGRRTFYGDSVK | GRAAGWFDS | 4.28 4.06 5.26 | 4/9 (4.80) |
| GFTLNKYGIS | VISSDGRRTFYGDSVK | GRAAMTFDS | 5.47 3.15 nd | 0/9 |
| GDTLYSYGIS | VIYSDGRRTFYGDSVK | GRAAGTFQS | nd nd nd | 1/9 (2.97) |
| GFFLNSYGIS | VIYSDGRRTFYGDYVK | GRAAYTFDS | nd nd nd | 0/9 |
| GFTLNSYGIS | VIYSDGIRTFYLDSVK | GRAAGTFFS | nd nd 5.81 | 4/9 (4.02) |
| GFTLNSYGIS | VIYSDGRRTFRGDSVK | GRAAGHFDS | nd nd nd | 0/9 |
| GFTLNDYGIS | VIYSDGRRHFYGDSRK | GRAAGTFDS | 3.56 nd nd | 0/9 |
| GTTLNSYGIS | DIYSDGRRTMYGDSVK | GRAAGTFDS | 3.39 5.07 nd | 2/9 (4.23) |
| GFTLNSYKIS | VIYSDGRRTSYGDSVK | GRAAGTFDN | 5.44 nd 4.10 | 0/9 |
| FFTLNSYGIS | VIYSDGRMTFYGDSVK | GGAAGTFDS | nd nd nd | 3/9 (3.94) |
| GFTLNSYGIS | VIYSDGRRTVYGDSHK | GRAAGTFDY | nd 5.34 6.13 | 4/9 (3.80) |
| GFTLNSTGIS | VIYSDGRRTFYGDSVK | GRAAGTTDS | 2.10 nd nd | 0/9 |
| GFTLWSYGIS | VIYSRGRRTFYGDSVK | HRAAGTFDS | nd nd nd | 0/9 |
| GFTLNSYGIS | VIYSDGRRTFYGSSVK | GRAITTFDS | nd nd nd | 0/9 |
| GFTLEEYGIS | VIYSDGRRTFYGDSVK | GRAAGTFNS | 0.48 0.64 0.81 | 2/9 (4.84) |
| GNTLNSYGIS | VIYSDGRRTFYGDSVK | GHAAGTYDS | 1.79 1.68 2.11 | 3/9 (4.75) |
| GFTVSSYGIS | VIYSDGRHTFYGDSVK | GRAAGTFDS | 3.40 2.51 4.62 | 1/9 (3.11) |
| CFTLNSYGIS | VIYSDGRRTFYGSSVK | GRYAGTFDS | 3.11 3.60 3.35 | 3/9 (3.96) |
| TFTLNSYGRS | VIYSDGRRTYYGDSVK | GRAAGTFDS | nd 4.02 nd | 0/9 |
| GFTLNSYGLA | VIYSDGRRKFYGDSVK | GRAAGTFDS | 3.66 nd nd | 1/9 (5.16) |
| GFTLNSYGIS | VIYSDGRNTFYGDSVK | GRAAGTFDS | nd 2.10 nd | 1/9 (3.70) |
| GFTLNSYGIS | VIYSDGRRSHYGDDVK | GRAAGTFDS | 1.50 1.66 2.62 | 0/9 |
| GFELNSYGIS | VIYSDGFRTFYGDSVK | GRAAGTKDS | nd nd nd | 0/9 |
| GFTLNSYGIS | VIYSDGRRTFYGDSNW | GRAAGTFDS | nd nd nd | 1/9 (4.26) |
| GFTLNSYGIS | TIYSDGRRTFYGDSVK | GRAAGRFDL | nd nd 4.72 | 0/9 |
| GFTLNSRGIS | VRYSDGRRWFYGDSVK | GRAAGTFDS | nd nd nd | 1/9 (2.50) |
| GFTLNSYGIS | VIYSDYRRTFYGYSVD | GRAAGTFDS | nd 3.52 nd | 0/9 |
| AFDLNSYGIS | VIYSDGRRTFYGDPVK | GRAAGTFDS | 1.44 1.51 1.53 | 2/9 (4.10) |
| GFTSNWYGIS | VIYSDGRRTFYGDSVK | GRAAGRFDS | nd 3.42 4.83 | 1/9 (4.70) |
| GFALNSYGIS | VIYSDGRRTFYGDSVK | GRQAGTFDS | nd nd nd | 0/9 |
| GFTLNSYGIS | VIYSDGRNTIYGDSVK | VRAAGTFDS | nd 4.25 nd | 1/9 (4.40) |
| GFTLNSQGIS | VIYSDGRRTCYGDSVK | GRQAGTFDS | 4.52 4.05 nd | 6/9 (4.41) |
| YFTLNSQGIS | VIYSDGRRTFYGDSVK | GRIAGTFDS | 2.74 2.80 2.13 | 2/9 (4.31) |
| GFTRNSTGIS | VIYSDGRRTFYGDSAK | GRAAGTFDS | nd nd 3.79 | 3/9 (4.56) |

The last 7 entries again:

| CDR-H1 | CDR-H2 | CDR-H3 | log10 Kd, replicates | signal with controls |
|---|---|---|---|---|
| AFDLNSYGIS | VIYSDGRRTFYGDPVK | GRAAGTFDS | 1.44 1.51 1.53 | 2/9 (4.10) |
| GFTSNWYGIS | VIYSDGRRTFYGDSVK | GRAAGRFDS | nd 3.42 4.83 | 1/9 (4.70) |
| GFALNSYGIS | VIYSDGRRTFYGDSVK | GRQAGTFDS | nd nd nd | 0/9 |
| GFTLNSYGIS | VIYSDGRNTIYGDSVK | VRAAGTFDS | nd 4.25 nd | 1/9 (4.40) |
| GFTLNSQGIS | VIYSDGRRTCYGDSVK | GRQAGTFDS | 4.52 4.05 nd | 6/9 (4.41) |
| YFTLNSQGIS | VIYSDGRRTFYGDSVK | GRIAGTFDS | 2.74 2.80 2.13 | 2/9 (4.31) |
| GFTRNSTGIS | VIYSDGRRTFYGDSAK | GRAAGTFDS | nd nd 3.79 | 3/9 (4.56) |

Values reported by Engelhart et al. 2022, doi:10.1038/s41597-022-01779-4 (FLAb copy).